In patent publication US12539333B2, “Tetracycline complexes with sustained activity” (FRAUNHOFER-GESELLSCHAFT ZUR FÖRDERUNG DER ANGEWANDTEN …, priority 2018, dated 2026) one finds solubility in water data, which are given here for one substance.

This series in a line: Solubility in different solvents.

Regarding “1:2 Complex of Minocycline (Free Base) and Magnesium Stearate [Example 1]”, the solubility in water result was “reduced water solubility compared to the parent drug”.
